The numbers were not newly measured in patent US20200352950A1, “Novel method of treating dystonia” (KOREA ADVANCED INSTITUTE OF SCIENCE AND TECHNOLOGY, priority 2017, published 2020), which cites them from elsewhere.

The chains behind the UniProt entries cited, without tags or fusion partners.
UniProt P28223, whole entry: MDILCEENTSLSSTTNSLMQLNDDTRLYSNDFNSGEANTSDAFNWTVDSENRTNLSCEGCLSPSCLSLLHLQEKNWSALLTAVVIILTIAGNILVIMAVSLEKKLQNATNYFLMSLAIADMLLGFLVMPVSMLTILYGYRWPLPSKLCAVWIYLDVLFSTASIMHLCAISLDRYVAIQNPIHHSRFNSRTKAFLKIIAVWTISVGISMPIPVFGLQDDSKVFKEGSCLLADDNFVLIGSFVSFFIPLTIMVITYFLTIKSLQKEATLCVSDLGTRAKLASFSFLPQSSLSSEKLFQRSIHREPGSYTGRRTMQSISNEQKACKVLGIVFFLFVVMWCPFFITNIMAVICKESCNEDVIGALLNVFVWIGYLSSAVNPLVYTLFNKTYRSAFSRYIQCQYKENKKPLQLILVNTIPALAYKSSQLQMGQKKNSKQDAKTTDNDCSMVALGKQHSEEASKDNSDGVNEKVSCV

This series concerns the target 5-HT2A receptor (Homo sapiens, UniProt P28223). The following applies: cited from earlier work.

For orientation: Ki means a measure of affinity in units of concentration, obtained from inhibition or displacement. For `O=S1(=O)N(CCN2CC=C(c3c[nH]c4cc(F)ccc34)CC2)c2cccc3c2N1CCC3` [LY-367265], the Ki is 0.81 nM.
